Compound activity as filed in PubChem BioAssay.
GSIS activator – GLuc luminescence reporter in INS-1E cells, primary screen for activators of glucose-dependent secretion of insulin. INS-1E GLuc reporter insulin secretion, 2-3 h. activation, % at 16.6 µM. 370,000 tested, 0.61% active. AID 743287, 2014;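 active = lowest replicate activation of at least 40%, so every replicate reaches that level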;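 note: 0% = median of neutral control wells and 100% = median of IBMX positive control wells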
SR-BI DiI-HDL act – activators of SR-BI mediated DiI-HDL uptake, primary screen, ldlA[mSR-BI] CHO cells, DiI fluorescence; AID 504775, 2011; activation, % at 12.5 µM; 320,000 tested, 0.096% active; 3 h; 100 = double the neutral-control signal;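 active = mean replicate activation of at least 60% and every replicate at or above 60%; inconclusive = mean or all-replicate condition met, but not both; inactive = mean below 60% and not all replicates reaching 60%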;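 note: 0% = median plate neutral-control signal and 100% = twice that signal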
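material = CHO ldlA[mSR-BI] cells | medium = Ham's F12 with 0.5% BSA, HEPES 25 mM, pH 7.4 | reagent = fluorescent DiI-HDL, 10 µg/mL final | compound dosing = single-point compound dose | incubation = 3 h, 37 °C | measured by = bottom-read fluorescence, 550/595 nm | measure = HDL uptake via cellular fluorescence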
Yeast UUG start – modulators of yeast start codon fidelity, primary screen, whole organism, S. cerevisiae, single point, plate reader; S. cerevisiae UUG-firefly luciferase reporter, luminescence/redox ratio; activity score, % at 18.7 µM; actives 0.13% (n = 350,000); AID 602363, 2012;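 active = replicate mean at a twofold rise or more, about +100% in these data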;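 also: firefly luciferase made from a UUG start codon reports start codon fidelity; reporter light over untreated wells divided by growth signal over untreated wells; some hits fall short of that in this replicate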
SR-BI DiI inh – inhibitors of SR-BI mediated HDL lipid uptake, primary screen, ldlA[mSR-BI] cells, fluorescence, single point | Scavenger receptor class B member 1 (Mus musculus), Q61009 | ldlA[mSR-BI] CHO cells, DiI-HDL uptake fluorescence, 3 h | inhibition, % at 12.5 µM | 320,000 tested, 0.96% active;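 active = mean replicate inhibition of at least 70% and a set share of replicates each scoring 70 or more; inconclusive = meets just one of the two criteria; inactive = fails both criteria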;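 note: 0% = median of neutral control wells and 100% = median of positive control wells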
Active calls of the source: *; ? = inconclusive; . = no result. An excerpt weighted towards active compounds, which were near 1.3% of everything screened.

Codes: A = GSIS activator; B = SR-BI DiI-HDL act; C = Yeast UUG start; D = SR-BI DiI inh
1. C[C@H](CO)N1C[C@H](C)[C@H](CN(C)CC2CCCCC2)Oc2ccc(NC(=O)c3ccncc3)cc2C1=O
  A = 14 | B = . | C = -2 | D = .
2. CC(C)C#Cc1ccc2c(c1)O[C@H](CN(C)C(=O)Nc1ccccc1)[C@H](C)CN([C@@H](C)CO)S2(=O)=O
  A = -22 | B = . | C = 0 | D = .
3. Cc1ccc(-n2nc3ccc(NC(=O)c4ccco4)cc3n2)cc1
  A = 65* | B = -52 | C = -9 | D = 52
4. CCCC#Cc1ccc2c(c1)[C@@H]1[C@@H](CCN1S(=O)(=O)c1cn(C)cn1)[C@@H](CO)N2
  A = -5 | B = . | C = . | D = .
5. O=C(Nc1nccs1)[C@@H]1[C@@H](CO)[C@@H]2Cn3c(cccc3=O)[C@H]1N2C(=O)C1CCCCC1
  A = -2 | B = . | C = . | D = .
6. COC(=O)c1ccc(C)c(-n2c(=O)n(Cc3ccccc3)c(=O)c3[nH]cnc32)c1
  A = 44* | B = . | C = -23 | D = .
7. NC(=O)c1ccc(NC(=O)C2COc3ccccc3O2)cc1 (stereo unspecified)
  A = 1 | B = 3 | C = -6 | D = -3
8. CC(OC(=O)C1COc2ccccc2O1)C(=O)N(C)c1ccccc1 (stereo unspecified)
  A = 0 | B = 23 | C = . | D = -23
9. O=C(Nc1ccc(F)cc1)C1COc2ccccc2O1 (stereo unspecified)
  A = 184* | B = 9 | C = -2 | D = -9
10. CC(OC(=O)C1COc2ccccc2O1)C(=O)c1ccccc1 (stereo unspecified)
  A = 48* | B = . | C = -25 | D = .
11. Cc1noc(C)c1S(=O)(=O)Nc1ccc2c(c1)C(=O)N([C@@H](C)CO)C[C@@H](C)[C@@H](CN(C)C(=O)CCCN(C)C)OCCCC[C@@H](C)O2
  A = 16 | B = . | C = 0 | D = .
12. CN1C(=O)c2cc(NC(=O)c3cccc(F)c3)ccc2OC[C@@H]2O[C@@H](CC(=O)NCc3ccccc3)CC[C@H]21
  A = -6 | B = . | C = 17 | D = .
13. C=C1C(=O)[C@]23C[C@H]1CCC2[C@]1(C)C(=O)CC[C@@](C)(C(=O)O)C1C[C@@H]3O (stereo partly specified)
  A = 93* | B = . | C = -4 | D = .
14. COc1cccc(C(=O)/C=C2\Sc3ccccc3N2C)c1
  A = 3 | B = -83 | C = -12 | D = 83*
15. C[C@@H]1CN([C@@H](C)CO)S(=O)(=O)c2ccc(C3=CCCC3)cc2O[C@H]1CN(C)C(=O)C1CC1
  A = -10 | B = . | C = . | D = .
16. CCS(=O)(=O)Nc1ccc2c(c1)C(=O)N(C)C[C@H](OC)[C@@H](C)CN(C(=O)COC)[C@@H](C)CO2
  A = 0 | B = . | C = 5 | D = .
17. COc1ccc2c3c([nH]c2c1)[C@@H](CO)N(C(=O)c1ccccc1)CC31CN(C(=O)Nc2cccc(F)c2)C1
  A = -16 | B = . | C = . | D = .
18. CC(C)c1ccc(/C=N/NC(=O)c2cccc(S(=O)(=O)N3CCOCC3)c2)cc1
  A = 2 | B = -71 | C = -4 | D = ?
19. O=C(N/N=C/c1sc(N2CCOCC2)nc1-c1ccccc1)c1cccc(S(=O)(=O)N2CCCC2)c1
  A = . | B = -97 | C = . | D = 97*
20. O=C(N/N=C/c1ccccc1Br)c1cccc(S(=O)(=O)N2CCOCC2)c1
  A = -12 | B = -79 | C = -2 | D = 80*
21. O=C(N/N=C/c1cc(Br)cc(Br)c1O)c1cccc(S(=O)(=O)N2CCOCC2)c1
  A = 0 | B = . | C = . | D = .
22. O=C(N/N=C/c1cc(Cl)cc([N+](=O)[O-])c1O)c1cccc(S(=O)(=O)N2CCOCC2)c1
  A = 18 | B = -125 | C = -22 | D = 125*
23. COCC(=O)N1C[C@H]2[C@@H](c3ccccc31)[C@@H](CO)N2Cc1ccccc1F
  A = 8 | B = . | C = -4 | D = .
24. CO[C@@H]1CN(C)C(=O)c2ccc(NS(C)(=O)=O)cc2OC[C@@H](C)N(Cc2ccccc2)C[C@H]1C
  A = 3 | B = . | C = . | D = .
25. CCCNC(=O)N1C[C@H](O)COC[C@H]2O[C@H](CC(=O)N[C@H]3CCN(Cc4ccccc4)C3)CC[C@@H]21
  A = 4 | B = . | C = -6 | D = .
26. Cn1nnnc1Sc1ncnc2scc(-c3cccc(F)c3)c12
  A = 22 | B = -5 | C = -13 | D = 5
27. COc1cccc(-c2csc3ncnc(Sc4nnnn4C)c23)c1
  A = 53* | B = -7 | C = -13 | D = 7
28. COc1ccc(/C=N/NC(=O)c2ccc(CSc3nc(C)cc(C)n3)cc2)cc1O
  A = . | B = -4 | C = . | D = 4
29. Cc1cc(C)nc(SCc2ccc(C(=O)N/N=C/c3ccc(C(=O)O)cc3)cc2)n1
  A = 1 | B = -18 | C = . | D = 18
30. Cc1cc(C)nc(SCc2ccc(C(=O)N/N=C/c3cccc(O)c3O)cc2)n1
  A = -29 | B = -93 | C = . | D = 93*

31	COc1ccc(O)c(/C=N/NC(=O)c2ccc(CSc3nc(C)cc(C)n3)cc2)c1
32	C[C@@H]1CCCCO[C@H](CN(C)Cc2ccc3c(c2)OCO3)[C@H](C)CN([C@@H](C)CO)C(=O)c2cc(NC(=O)Nc3ccccc3)ccc2O1
33	CCN(CC)c1cc(C)c2cc(NC(=O)c3ccc(Br)o3)ccc2n1
34	COc1cc(CNCCc2ccccc2)ccc1OCC(N)=O
35	COc1ccc(CCNC(N)=S)cc1OC
36	COc1ccc(CCNC(=O)CSc2n[nH]c(N)n2)cc1OC
37	COc1ccc(CCNC(=O)C(=O)NN=C2CCCCCCC2)cc1OC
38	COc1ccc(CCNC(=O)CSc2n[nH]c(N)n2)cc1
assay / compound	31	32	33	34	35	36	37	38
GSIS activator	.	-25	.	3	53*	86*	59*	5
SR-BI DiI-HDL act	-125	.	-73	64*	-8	10	10	.
Yeast UUG start	.	32	-7	-14	-5	-10	-11	-21
SR-BI DiI inh	125*	.	73*	-64	8	-10	-10	.

39	C[C@H]1CN(C)C(=O)c2cc(N)ccc2O[C@H]1CN(C)C
40	CO[C@@H]1CN(C)C(=O)c2ccc(NC(=O)c3ccc(F)cc3)cc2OC[C@@H](C)N(C)C[C@@H]1C
41	COc1ccc(CCNC(=O)CCc2ccccc2)cc1OC
42	COc1ccc(CCNC(=O)CCc2nc3ccccc3[nH]2)cc1OC
43	COc1ccc(CCNC(=O)COC(=O)Cn2cnc3ccccc32)cc1OC
44	COc1ccc(CCNC(=O)CN2c3cccc4cccc(c34)S2(=O)=O)cc1OC
45	CCCC#Cc1cnc2c(c1)C(=O)N([C@H](C)CO)C[C@H](C)[C@@H](CN(C)C(=O)c1ccc(F)cc1)O2
46	CCCNC(=O)N1CC2(C1)CN(C(C)=O)[C@@H](CO)c1c2c2ccc(OC)cc2n1C
assay / compound	39	40	41	42	43	44	45	46
GSIS activator	6	-4	60*	90*	57*	98*	-25	5
SR-BI DiI-HDL act	.	.	.	.	13	-1	.	.
Yeast UUG start	.	5	-8	-5	.	-8	29	.
SR-BI DiI inh	.	.	.	.	-13	1	.	.

Exported with two lines to a compound: five of the compounds above.
Every second line gives: GSIS activator	SR-BI DiI-HDL act	Yeast UUG start	SR-BI DiI inh
[46] CCCNC(=O)N1CC2(C1)CN(C(C)=O)[C@@H](CO)c1c2c2ccc(OC)cc2n1C
→ 5	.	.	.
[44] COc1ccc(CCNC(=O)CN2c3cccc4cccc(c34)S2(=O)=O)cc1OC
→ 98*	-1	-8	1
[45] CCCC#Cc1cnc2c(c1)C(=O)N([C@H](C)CO)C[C@H](C)[C@@H](CN(C)C(=O)c1ccc(F)cc1)O2
→ -25	.	29	.
[42] COc1ccc(CCNC(=O)CCc2nc3ccccc3[nH]2)cc1OC
→ 90*	.	-5	.
[39] C[C@H]1CN(C)C(=O)c2cc(N)ccc2O[C@H]1CN(C)C
→ 6	.	.	.

The list continues:
47	COc1ccc(NC(=O)C2C3C=CC4(O3)C2C(=O)N(CCN2CCCCC2)C4C(=O)NC2CCCCC2)cc1 (stereo unspecified)
48	COc1ccc(NC(=O)C2C3C=CC4(O3)C2C(=O)N(CCN2CCCCC2C)C4C(=O)NC2CCCC(C)C2C)cc1 (stereo unspecified)
49	C=CC(=O)N1C/C(=C/c2ccccc2)C(=O)/C(=C\c2ccccc2)C1
50	C=CC(=O)N1C/C(=C/c2ccc(Cl)cc2)C(=O)/C(=C\c2ccc(Cl)cc2)C1
51	COCCOC(=O)C1=C(C)NC(=S)NC1c1cccs1 (stereo unspecified)
52	C=CCOC(=O)C1=C(C)NC(=S)NC1c1cccs1 (stereo unspecified)
assay / compound	47	48	49	50	51	52
GSIS activator	7	92*	50*	.	-1	-16
SR-BI DiI-HDL act	-7	.	-5	11	-15	-78
Yeast UUG start	-3	4	.	.	-16	.
SR-BI DiI inh	7	.	5	-11	15	78*
